In general, Ki refers to a dissociation constant, usually derived from enzyme kinetics or from competition with a known ligand. As a reminder, the inhibition is the percentage by which the read-out fell short of the control. Low readings indicate a response near the control, high ones a response far below the control.

Protein sequences, listed by entry. Tags and fused reporters are not part of them. Lines headed by an entry give the natural chain unless they say otherwise; changes in a name come on top.
UniProt P28223, whole entry: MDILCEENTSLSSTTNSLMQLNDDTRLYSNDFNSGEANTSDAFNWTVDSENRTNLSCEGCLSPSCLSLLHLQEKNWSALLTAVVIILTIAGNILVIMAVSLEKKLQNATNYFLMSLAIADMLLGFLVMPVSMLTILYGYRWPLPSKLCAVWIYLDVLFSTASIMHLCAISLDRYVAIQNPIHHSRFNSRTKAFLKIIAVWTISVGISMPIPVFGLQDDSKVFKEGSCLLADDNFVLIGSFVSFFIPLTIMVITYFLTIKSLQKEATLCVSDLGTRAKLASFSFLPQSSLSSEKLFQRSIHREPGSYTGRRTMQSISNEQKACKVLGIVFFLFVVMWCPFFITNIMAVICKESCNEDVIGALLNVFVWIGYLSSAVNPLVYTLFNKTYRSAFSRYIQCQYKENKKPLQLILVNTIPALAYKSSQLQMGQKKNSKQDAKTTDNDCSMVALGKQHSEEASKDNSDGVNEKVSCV
UniProt P28566: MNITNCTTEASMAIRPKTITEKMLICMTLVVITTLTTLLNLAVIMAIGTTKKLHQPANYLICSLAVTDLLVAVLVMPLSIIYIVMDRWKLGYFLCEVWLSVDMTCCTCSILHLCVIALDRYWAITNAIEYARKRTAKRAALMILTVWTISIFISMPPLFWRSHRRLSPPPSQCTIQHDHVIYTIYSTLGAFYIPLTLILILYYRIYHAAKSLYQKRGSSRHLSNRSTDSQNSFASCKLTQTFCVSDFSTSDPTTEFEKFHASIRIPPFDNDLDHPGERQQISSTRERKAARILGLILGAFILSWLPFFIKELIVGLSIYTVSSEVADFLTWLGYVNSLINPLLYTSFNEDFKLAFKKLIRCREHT
UniProt O70528: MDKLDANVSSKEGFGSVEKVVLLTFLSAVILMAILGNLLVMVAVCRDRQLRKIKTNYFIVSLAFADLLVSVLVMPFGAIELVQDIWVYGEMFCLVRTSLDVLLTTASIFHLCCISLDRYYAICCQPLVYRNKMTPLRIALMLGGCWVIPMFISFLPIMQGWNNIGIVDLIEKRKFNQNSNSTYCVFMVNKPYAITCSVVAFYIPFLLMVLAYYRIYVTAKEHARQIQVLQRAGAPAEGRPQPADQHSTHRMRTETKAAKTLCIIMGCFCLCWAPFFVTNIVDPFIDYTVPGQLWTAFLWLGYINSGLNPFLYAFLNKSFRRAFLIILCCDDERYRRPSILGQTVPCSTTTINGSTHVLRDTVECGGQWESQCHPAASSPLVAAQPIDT
UniProt P41595, whole entry: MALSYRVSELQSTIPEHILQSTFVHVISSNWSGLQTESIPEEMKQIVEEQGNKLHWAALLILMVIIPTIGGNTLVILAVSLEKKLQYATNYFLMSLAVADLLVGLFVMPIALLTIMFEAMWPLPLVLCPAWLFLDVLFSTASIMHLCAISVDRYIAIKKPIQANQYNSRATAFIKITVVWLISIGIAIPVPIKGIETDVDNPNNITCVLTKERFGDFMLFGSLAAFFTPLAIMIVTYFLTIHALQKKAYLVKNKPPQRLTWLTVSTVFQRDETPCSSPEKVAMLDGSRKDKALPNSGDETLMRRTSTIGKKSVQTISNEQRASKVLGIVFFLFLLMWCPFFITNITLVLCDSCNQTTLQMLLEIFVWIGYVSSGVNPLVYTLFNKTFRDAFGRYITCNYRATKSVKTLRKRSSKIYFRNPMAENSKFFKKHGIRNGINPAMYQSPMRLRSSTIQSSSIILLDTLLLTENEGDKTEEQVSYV

Where only a bound is given, the exact number is not on record here.

The target of experiment [1] is 5-hydroxytryptamine receptor 2A (Homo sapiens, UniProt P28223). Description: Binding affinity to human 5HT2A by Cerep protocol based assay.
Experiment [2] has as its target 5-hydroxytryptamine receptor 1E (Homo sapiens, UniProt P28566). Description: Binding affinity to human 5HT1E by Cerep protocol based assay.
The target of experiment [3] is 5-hydroxytryptamine receptor 4 (Cavia porcellus) (UniProt O70528). Put plainly: Displacement of [3H]GR113808 from 5HT4R in guinea pig striatal membranes at 10 nM. The format is cell membranes. As to conditions: Striatum, Membrane. In short, it runs like this: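 Native 5-HT4R in male guinea pig striatal membranes (HEPES 50 mM pH 7.4); 600 µg membrane incubated in duplicate with [3H]GR 113808 at 0.1 nM final, 37 °C, 30 min; filtration on PEI-soaked GF/B filters, cold buffer washes.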
On the technique in general: In a radioligand displacement assay an active substance lowers the binding of a labelled ligand.

Experiment [4] has as its target 5-hydroxytryptamine receptor 2B (Homo sapiens, UniProt P41595). Description: Binding affinity to human 5HT2B by Cerep protocol based assay.

Consider `CCCN1CCC(COc2nc3c(F)cccc3c3ccccc23)CC1`, for which the Ki in experiment [1] and in experiment [2] was over 10 µM in each case.
With `CCCN1CCC(COc2nc3ccccc3c3cccc(F)c23)CC1`, the inhibition in experiment [3] was 0%.
In experiment [2], `CCCN1CCC(COc2nc3c(Cl)cccc3c3ccccc23)CC1` displayed a Ki of over 10 µM.
`CCCN1CCC(COc2nc3c(I)cccc3c3ncccc23)CC1`: in experiment [4], the Ki is over 10 µM.

The record behind these values is ChEMBL document CHEMBL2176996, “Synthesis and structure-affinity relationships of selective high-affinity 5-HT(4) receptor antagonists: application to the design of new potential single photon emission computed tomography tracers” (J Med Chem, 2012).
